This is a selection; strong and weak results do not stand in their true shares. Some structures show a salt or complex split into parts, the way the source records it. Activity calls are given as the source filed them.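 Rule for the calls: active = B-score above 5 SD of library B-scores, and initial fluorescence ratio not above library mean plus 5 SD; inactive = the rest.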
Each compound was assayed against Short transient receptor potential channel 4 (Mus musculus) (UniProt Q9QUQ5) (assay: activators of mouse TRPC4 channel, primary screen, Fluo4 calcium, HEK293 TRPC4beta/mu-opioid cells (AID 2237)). Settings: Fluo4 calcium fluorescence, at 10 µM.

Amino acid sequences for entries named in this document (tags omitted).
UniProt Q9QUQ5, whole entry: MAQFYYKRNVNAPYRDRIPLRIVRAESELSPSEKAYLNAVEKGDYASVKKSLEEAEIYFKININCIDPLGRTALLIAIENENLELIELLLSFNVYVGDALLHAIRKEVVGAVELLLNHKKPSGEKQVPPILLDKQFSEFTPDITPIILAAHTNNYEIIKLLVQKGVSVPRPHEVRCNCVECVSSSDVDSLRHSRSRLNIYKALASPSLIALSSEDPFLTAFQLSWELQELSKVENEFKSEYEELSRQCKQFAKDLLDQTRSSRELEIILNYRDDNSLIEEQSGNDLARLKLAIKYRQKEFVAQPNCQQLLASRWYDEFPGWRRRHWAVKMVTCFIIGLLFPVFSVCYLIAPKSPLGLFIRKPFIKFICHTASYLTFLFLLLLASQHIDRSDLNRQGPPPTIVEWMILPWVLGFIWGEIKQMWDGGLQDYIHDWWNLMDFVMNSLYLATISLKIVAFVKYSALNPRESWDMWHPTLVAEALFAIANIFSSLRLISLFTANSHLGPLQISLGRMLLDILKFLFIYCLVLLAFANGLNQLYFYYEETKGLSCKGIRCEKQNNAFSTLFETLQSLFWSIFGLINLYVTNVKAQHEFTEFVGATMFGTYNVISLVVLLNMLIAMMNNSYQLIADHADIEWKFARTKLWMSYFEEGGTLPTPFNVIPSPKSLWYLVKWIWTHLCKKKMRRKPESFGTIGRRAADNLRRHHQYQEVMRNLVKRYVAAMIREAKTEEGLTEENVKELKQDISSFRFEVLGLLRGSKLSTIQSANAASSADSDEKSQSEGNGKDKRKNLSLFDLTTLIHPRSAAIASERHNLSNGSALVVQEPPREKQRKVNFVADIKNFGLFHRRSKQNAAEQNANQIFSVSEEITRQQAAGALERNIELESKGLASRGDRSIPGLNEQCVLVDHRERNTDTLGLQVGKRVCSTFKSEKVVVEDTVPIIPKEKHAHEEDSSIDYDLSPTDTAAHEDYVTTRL

SMILES | outcome
O=[N+]([O-])c1cc([N+](=O)[O-])c(CCNc2ccccc2)c([N+](=O)[O-])c1 | inactive
Cc1ccc(NP(=O)(Oc2ccccc2)Oc2ccccc2)nc1 | inactive
CP(=O)(Oc1ccccc1)N1CCOC1=O (stereo not drawn) | inactive
O=C(OCCCN1CCCC1)C(O)(c1ccccc1)C1CCCCC1 (stereo not drawn) | inactive
O=[N+]([O-])c1cccc2n[nH]nc12 | inactive
CC(=O)N1C2C3N(C(C)=O)C1C1N(C(C)=O)C(C(N1C(C)=O)N3C(C)=O)N2C(C)=O | inactive
COc1ccccc1OP(C)(=O)Nc1c(C)n(C)n(-c2ccccc2)c1=O (stereo not drawn) | inactive
COc1ccc(C2=NCC(CBr)S2)cc1 (stereo not drawn) | inactive
COc1ccc(OP(C)(=O)Nc2ccc(Br)cc2)cc1 (stereo not drawn) | inactive
CCN(CC)CC(O)COC(=O)C(O)(c1ccccc1)C1CCCCC1 (stereo not drawn) | inactive
CC1CCN(C(=O)Oc2c(Cl)cc(Cl)c3cccnc23)CC1 | inactive
CN(C)C(=O)OCCc1n(C)cc[n+]1C | inactive
CN(C)C(=O)c1c([N+](=O)[O-])cc([N+](=O)[O-])cc1[N+](=O)[O-] | inactive
CC(C)=N/N=C(\N)N[N+](=O)[O-] | inactive
CP(=O)(Nc1ccc(Cl)cc1)Oc1ccc(F)cc1 (stereo not drawn) | inactive
CCN(/C(=N/P(=O)(N1CCOCC1)N1CCOCC1)N1CCOCC1)c1ccc(OC)cc1 | inactive
C[N+]1=C2C=CC=CC=C2SC12C([N+](=O)[O-])=CC([N+](=O)[O-])=C[C-]2[N+](=O)[O-] (stereo not drawn) | inactive
COc1ccccc1OP(C)(=O)Nc1ccccc1Br (stereo not drawn) | inactive
CC(C)(C)c1ccc(OP(C)(=O)O)cc1 | inactive
Nc1ccc([As](=O)(O)c2ccc(N)cc2)cc1 | inactive
CP(=O)(OC12CC3CC(CC(C3)C1)C2)OC12CC3CC(CC(C3)C1)C2 | inactive
O=C(Nc1cc([As](=O)(O)O)ccc1O)c1ccccc1 | inactive
CCOC(=O)c1ccc(NP(C)(=O)Oc2ccc(Cl)cc2)cc1 (stereo not drawn) | inactive
Nc1ccc2c(ccc3cccnc32)n1.O=[N+]([O-])c1cc([N+](=O)[O-])c(O)c([N+](=O)[O-])c1 | inactive
O=C(O)CNc1ccc([As](=O)(O)O)cc1 | inactive

SMILES | outcome
O=[N+]([O-])c1cccc(NC2=NCC(CBr)S2)c1 (stereo not drawn) | inactive
O=[N+]([O-])c1ncn(CCn2ncnc2[N+](=O)[O-])n1 | inactive
CC(C)(C)C(=O)NC(Sc1ccncn1)C(Cl)(Cl)Cl (stereo not drawn) | inactive
COc1ccc(OP(C)(=O)Nc2ccccc2Br)cc1 (stereo not drawn) | inactive
COc1ccccc1OP(C)(=O)Nc1ccc(C)c(C)c1 (stereo not drawn) | inactive
Cc1ccc(NP(=O)(Oc2ccccc2F)Oc2ccccc2F)nc1 | inactive
CN(C(=O)Cc1ccc(Cl)c(Cl)c1)[C@H]1CCCC[C@@H]1N1CCCC1 | inactive
Cc1cc(SC(NC(=O)c2ccc(F)cc2)C(Cl)(Cl)Cl)ncn1 (stereo not drawn) | inactive
CCOP(=O)(Nc1ccccc1)OCC | inactive
O=P(Nc1nc2ccc(Cl)cc2s1)(c1ccccc1)c1ccccc1 | inactive
Cc1cc(C)cc(OP(C)(=O)Nc2cccc(C(F)(F)F)c2)c1 (stereo not drawn) | inactive
CC(=O)Nc1ccc([As](=O)(O)O)cc1 | inactive
O=C(O)c1ccccc1[As](=O)(O)O | inactive
CP(=O)(Nc1ccc(Cl)cc1Cl)Oc1ccccc1 (stereo not drawn) | inactive
CP(=O)(OCCOc1ccccc1)OCCOc1ccccc1 | inactive
Nc1cccc2ccc([As](=O)(O)O)cc12 | inactive
CCN(N=Nc1nonc1N)c1nonc1N | inactive
O=[N+]([O-])c1cc([N+](=O)[O-])c(CCN2CCOCC2)c([N+](=O)[O-])c1 | inactive
Cc1nc2ccc3ccccc3c2o1.O=[N+]([O-])c1cc([N+](=O)[O-])c(O)c([N+](=O)[O-])c1 | inactive
CN1CCCC(OC(=O)C(c2ccccc2)c2ccccc2)C1 (stereo not drawn) | inactive
Clc1ccc(Cl)c(NC2=NCC(CBr)S2)c1 (stereo not drawn) | inactive
CN(C)CCOC(=O)C(O)(c1ccccc1)C1CCCC1 (stereo not drawn) | inactive
Cc1ccc(OP(=O)(Nc2nccs2)Oc2ccc(C)cc2)cc1 | inactive
COc1ccccc1OP(=O)(Nc1ccc(C)cn1)Oc1ccccc1OC | inactive
COc1ccc(OP(C)(=O)Nc2ccccn2)cc1 (stereo not drawn) | inactive

SMILES | outcome
Cc1ccc(N/C(=N/P(=O)(N2CCOCC2)N2CCOCC2)N2CCOCC2)cc1 | inactive
COc1ccccc1OP(C)(=O)Nc1ccc(Br)cc1 (stereo not drawn) | inactive
NC(=O)c1cc([N+](=O)[O-])cc([N+](=O)[O-])c1N | inactive
CCc1ccc(OP(C)(=O)O)cc1 | inactive
COc1ccccc1OP(C)(=O)Nc1ccc(C)cc1C (stereo not drawn) | inactive
CP(=O)(Nc1ccccn1)Oc1ccccc1 (stereo not drawn) | inactive
O=C(NC(Sc1ccncn1)C(Cl)(Cl)Cl)c1ccccc1 (stereo not drawn) | inactive
Cc1c2non([O-])c-2c(C)[n+](=O)[n+]1[O-] | inactive
Oc1ccccc1CNc1ccccn1 | inactive
Cc1c(NP(C)(=O)Oc2ccc(C(C)C)cc2)c(=O)n(-c2ccccc2)n1C (stereo not drawn) | inactive
Nc1cc(N)c2nonc2c1[N+](=O)[O-] | inactive
CC(C)CC(=O)NC(Sc1ccc(Cl)cc1)C(Cl)(Cl)Cl (stereo not drawn) | inactive
O=[N+]([O-])c1cc([N+](=O)[O-])c(Nc2ccccn2)c([N+](=O)[O-])c1 | inactive
CC(C)c1ccc(OP(C)(=O)Nc2ccc(SC(F)(F)F)cc2)cc1 (stereo not drawn) | inactive
CC(C)(C)C(=O)NC(Sc1ccccc1)C(Cl)(Cl)Cl (stereo not drawn) | inactive
CP(=O)(Nc1ccccc1F)Oc1ccccc1 (stereo not drawn) | inactive
CCOc1ccc(C2=NCC(CBr)S2)cc1 (stereo not drawn) | inactive
O=P1(Nc2nc3ccc(Cl)cc3s2)COc2ccccc2O1 (stereo not drawn) | inactive
CC(=O)Nc1ccc(Oc2c([N+](=O)[O-])cc([N+](=O)[O-])cc2[N+](=O)[O-])cc1 | inactive
CC(=O)Nc1ccc([As](=O)(O)O)c(O)c1 | inactive
COc1ccc2c(c1O)-c1c(O)c(OC)cc3c1[C@H](C2)[N+](C)(C)CC3.O=[N+]([O-])c1cc([N+](=O)[O-])c([O-])c([N+](=O)[O-])c1[O-] | inactive
C[C@H]1OP(=O)(Oc2ccccc2)C[C@@H]2O[C@@H]21 (stereo partly drawn) | inactive
C[C@@H]1C=CCP(=O)(Oc2ccccc2)O1 (stereo partly drawn) | inactive
